Values quoted from earlier work as cited in patent publication US20050124533A1, “Glucocorticoid blocking agents for increasing blood-brain barrier permeability stan-261con” (priority 2002, published 2005).

Settings: in vivo; cited from earlier work

gentamicin
concentrations achieved in the CNS as share of those achieved in plasma: less than 10%
